Counter-ions that a name gives are not always drawn. Like-named read-outs stand apart in the source and are kept apart here. Marks after values point to notes of the source that are not given here.
Details: water load 30 ml/kg 1 h after dosing, urine volume 1 h after water loading, vs vehicle control

| SMILES | Inhibition of urination (%) (3 mg/kg oral) | Inhibition of urination (%) (1 mg/kg oral (value marked *)) |
| --- | --- | --- |
| CC(C)C[C@H](N)[C@](O)(Cc1cc(OCCC2(C)CC2)ccn1)C(=O)O [Example 28] | 92% | – |
| CC(C)C[C@H](N)[C@](O)(Cc1nccc2oc(CCC3CC3)cc12)C(=O)O [Example 20, (2R,3S)-3-amino-2-{[2-(2-cyclopropylethyl)furo[3,2-c]pyridin-4-yl]methyl}-2-hydroxy-5-methylhexanoic acid] | 94% | – |
| CC(C)C[C@H](N)[C@](O)(Cc1cc(OCCCC2CC2)ccn1)C(=O)O [Example 29] | 93% | – |
| CCSC[C@H](N)[C@](O)(Cc1cc(O[C@H]2CC[C@H](C)CC2)ccn1)C(=O)O [Example 105, (2R,3R)-3-amino-4-(ethylsulfanyl)-2-hydroxy-2-({4-[(trans-4-methylcyclohexyl)oxy]pyridin-2-yl}methyl)butanoic acid] | 98% | – |
| CCCCSc1ccnc(C[C@](O)(C(=O)O)[C@@H](N)CC(C)C)c1 [Example 18, (2R,3S)-3-amino-2-{[4-(butylsulphanyl)pyridin-2-yl]methyl}-2-hydroxy-5-methylhexanoic acid] | 52% | – |
| N[C@@H](CSCCC1CC1)[C@](O)(Cc1cc(OCCCC2CC2)ccn1)C(=O)O [Example 139] | 90% | – |
| CCSC[C@H](N)[C@](O)(Cc1cc(OCCCC2CC2)ccn1)C(=O)O [Example 143] | 100% | – |
| CC(C)C[C@H](N)[C@](O)(Cc1cc(S[C@H]2CC[C@H](C)CC2)ccn1)C(=O)O [Example 119] | 97% | – |
| CC(C)C[C@H](N)[C@](O)(Cc1cc(OC2CCCCCC2)ccn1)C(=O)O [Example 41] | 55% | – |
| CC(C)C[C@H](N)[C@](O)(Cc1cc(O[C@H](C)Cc2ccccc2)ccn1)C(=O)O [Example 92] | 61% | – |
| CC(C)C[C@H](N)[C@](O)(Cc1cc(OC2CCCCC2)ccn1)C(=O)O.Cl.Cl [Example 3, (2R,3S)-3-amino-2-{[4-(cyclohexyloxy)pyridin-2-yl]methyl}-2-hydroxy-5-methylhexanoic acid dihydrochloride] | 59% | – |
| N[C@@H](COCCC1CC1)[C@](O)(Cc1cc(OCCC2CC2)ccn1)C(=O)O [Example 110] | 57% | – |
| CSC[C@H](N)[C@](O)(Cc1cc(O[C@H]2CC[C@H](C)CC2)ccn1)C(=O)O [Example 103, (2R,3R)-3-amino-2-hydroxy-2-({4-[(trans-4-methylcyclohexyl)oxy]pyridin-2-yl}methyl)-4-(methylsulfanyl)butanoic acid] | – | 92* % |
| CC(C)C[C@H](N)[C@](O)(Cc1cc(O[C@H]2CC[C@H](C)CC2)ccn1)C(=O)O (relative stereo) [Example 6, (2R,3S)-3-amino-2-hydroxy-5-methyl-2-({4-[(trans-4-methylcyclohexyl)oxy]pyridin-2-yl}methyl)hexanoic acid dihydrochloride] | 96% | – |
| C[C@H]1CC[C@H](Oc2ccnc(C[C@](O)(C(=O)O)[C@@H](N)CSCC3CC3)c2)CC1 [Example 5, (2R,3R)-3-amino-4-[(cyclopropylmethyl)sulfanyl]-2-hydroxy-2-({4-[(trans-4-methylcyclohexyl)oxy]pyridin-2-yl}methyl)butanoic acid] | 90% | – |
| CC(C)C[C@H](N)[C@](O)(Cc1cc(OC2CCC3(CC2)CC3)ccn1)C(=O)O [Example 4, (2R,3S)-3-amino-2-hydroxy-5-methyl-2-{[4-(spiro[2.5]octa-6-yloxy)pyridin-2-yl]methyl}hexanoic acid] | 93% | – |
| CC(C)C[C@H](N)[C@](O)(Cc1cc(OCCC2CC2)ccn1)C(=O)O [Example 1, (2R,3S)-3-amino-2-{[4-(2-cyclopropylethoxy)pyridin-2-yl]methyl}-2-hydroxy-5-methylhexanoic acid] | 88% | – |
| C=CCCOC[C@H](N)[C@](O)(Cc1cc(O[C@H]2CC[C@H](C)CC2)ccn1)C(=O)O [Example 88] | 89% | – |
| N[C@@H](CCC1CCC1)[C@](O)(Cc1cc(OCCC2CC2)ccn1)C(=O)O [Example 9, (2R,3S)-3-amino-5-cyclobutyl-2-{[4-(2-cyclopropylethoxy)pyridin-2-yl]methyl}-2-hydroxypentanoic acid] | 82% | – |
| CC(C)C[C@H](N)[C@](O)(Cc1cc(SCCC2CC2)ccn1)C(=O)O [Example 111] | 57% | – |
| C[C@H]1CC[C@H](Oc2ccnc(C[C@](O)(C(=O)O)[C@@H](N)COc3ccc(F)cn3)c2)CC1 [Example 84] | 64% | – |
| CC(C)C[C@H](N)[C@](O)(Cc1nccc2c1CC(CCC1CC1)O2)C(=O)O (some centres unmarked) [Example 83] | 80% | – |
| CCCC[C@@H](C)Oc1ccnc(C[C@](O)(C(=O)O)[C@@H](N)CC(C)C)c1 [Example 55] | 91% | – |

Reference: US10059720B2, “Pyridine derivative” (Astellas Pharma Inc., priority 2014, dated 2018)
